Measured values reported in publication PMC3752001 (European journal of pharmacology, 2012).
pIC50: −log10 of the molar value.

Sequences of proteins named here, by UniProt entry; tags and fusion partners are left off. Residues count along the entry.
UniProt P17787, 26-502: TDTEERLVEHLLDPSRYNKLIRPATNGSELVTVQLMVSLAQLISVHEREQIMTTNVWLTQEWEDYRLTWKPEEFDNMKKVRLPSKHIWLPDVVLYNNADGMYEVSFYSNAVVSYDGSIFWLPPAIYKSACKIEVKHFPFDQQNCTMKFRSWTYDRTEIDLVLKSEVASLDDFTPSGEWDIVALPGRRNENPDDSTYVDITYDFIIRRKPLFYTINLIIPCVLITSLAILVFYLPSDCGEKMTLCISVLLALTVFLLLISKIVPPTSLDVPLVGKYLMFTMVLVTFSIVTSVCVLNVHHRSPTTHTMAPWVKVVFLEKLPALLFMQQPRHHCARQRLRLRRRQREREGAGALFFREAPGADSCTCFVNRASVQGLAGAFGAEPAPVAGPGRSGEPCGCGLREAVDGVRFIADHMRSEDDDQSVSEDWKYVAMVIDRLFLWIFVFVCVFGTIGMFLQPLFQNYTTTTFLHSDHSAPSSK
UniProt P43681, 27-627: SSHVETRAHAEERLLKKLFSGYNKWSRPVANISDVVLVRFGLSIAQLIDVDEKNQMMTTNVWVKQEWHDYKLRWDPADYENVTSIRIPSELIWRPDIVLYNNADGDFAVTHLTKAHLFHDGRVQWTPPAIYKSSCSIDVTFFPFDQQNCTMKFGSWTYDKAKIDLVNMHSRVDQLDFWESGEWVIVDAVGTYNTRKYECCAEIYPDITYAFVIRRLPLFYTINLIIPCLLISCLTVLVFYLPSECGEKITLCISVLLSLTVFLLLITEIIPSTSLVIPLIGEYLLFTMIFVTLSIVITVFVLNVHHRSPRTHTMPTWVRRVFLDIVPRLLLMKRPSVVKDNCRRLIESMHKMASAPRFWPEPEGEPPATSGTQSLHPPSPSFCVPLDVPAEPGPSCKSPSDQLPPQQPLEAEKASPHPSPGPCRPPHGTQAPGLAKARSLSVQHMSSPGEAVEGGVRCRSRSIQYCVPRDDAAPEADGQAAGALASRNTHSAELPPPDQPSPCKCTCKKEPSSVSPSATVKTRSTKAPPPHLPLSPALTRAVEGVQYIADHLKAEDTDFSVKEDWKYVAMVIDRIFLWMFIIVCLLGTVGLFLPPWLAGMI

Biological target: high sensitivity (HS) α4β2 nicotinic acetylcholine receptors (Homo sapiens, UniProt P17787+P43681)
Experiment: Two-electrode voltage clamp, high sensitivity
Type: cell-based
Conditions: Tris co-applied with 10 μM acetylcholine, phosphate ND-96

“Tris (hydroxymethyl)-aminomethane hydrochloride” was tested, and the pIC50 was 2.00.
